# Apparent affinities of Ab-95 variants for a coronavirus HR2 peptide

Reference: Engelhart et al. 2022, doi:10.1038/s41597-022-01779-4. File: FLAb, binding data.

The target is the same throughout: PDVDLGDISGINAS, from the HR2 region of SARS-CoV-2 spike.

Parent: Ab-95, a human scFv built as VH, a 15-residue (Gly4Ser)3 linker, VL. Only the CDRs of the light chain vary.
VH: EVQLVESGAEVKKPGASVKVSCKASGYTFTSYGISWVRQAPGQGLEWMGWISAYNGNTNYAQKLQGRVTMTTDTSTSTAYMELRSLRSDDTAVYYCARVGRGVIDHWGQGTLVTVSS
VL: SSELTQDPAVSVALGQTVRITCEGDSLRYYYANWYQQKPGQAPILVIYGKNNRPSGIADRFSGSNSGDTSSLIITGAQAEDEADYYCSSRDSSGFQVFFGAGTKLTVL

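In library AAYL52, one, two or three CDR residues were substituted; doubles and triples were drawn at random. In AlphaSeq, yeast of one mating type display the scFv and yeast of the other type display the target. Mating (16 h, 30 °C) was followed by selection of diploids and sequencing of their barcodes. Each replicate has its own calibration line, from reference interactions of the BCL2 family. Each pool was mated in three replicate cultures.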

Substitutions are numbered in sequence along the VL above, starting at 1 (not Kabat). This list gathers variants with a substitution at K50 (VL, numbered from residue 1). The Kd shown is the geometric mean over detected replicates; a lower Kd is a better binder. Where no diploid with the target was found in any replicate, the entry reads "nd": below detection, most likely a poor binder, though not proof of it. Three control strains display no target. For library AAYL52, 28% of the pairings with them gave a signal, with a median of 8.2 µM and one signal in twenty below 800 nM, so weak values seen in few replicates may be background. Parent in this assay: reference entry 200 nM, copy in this library 180 nM.

For E23Q+G24K+K50P, the assay gave 890 nM (3 of 3 replicates). Variant E23D+K50D+G94Y gave 290 nM (3 of 3 replicates). Variant K50G+R53F+S93I showed 67 µM (2 of 3 replicates). Variant G24V+K50V+Q96W showed 5.8 µM (1 of 3 replicates). With Y31W+K50R+S89L the result was 1.7 µM (3 of 3 replicates). With A32P+K50T+S88V the result was 1.9 µM (3 of 3 replicates). For E23T+K50V+N52W, the assay gave 1.3 µM (3 of 3 replicates). With L27V+K50H+N52S the result was 11 µM (1 of 3 replicates).

Variant Y29L+N33Q+K50R gave nd (0 of 3 replicates). With K50C+S89N+G94I the result was 16 µM (1 of 3 replicates). Variant K50F+S88K+F98N gave nd (0 of 3 replicates). Variant K50V+P54L+F98L showed 130 nM (3 of 3 replicates). Variant Y29E+K50P showed 330 nM (3 of 3 replicates). For K50Q+N51V+Q96E, the assay gave 1.0 µM (1 of 3 replicates). Variant L27R+K50W+V97S gave 25 µM (1 of 3 replicates). Variant A32W+K50P+S92C gave 8.5 µM (2 of 3 replicates).

Variant G24C+Y29L+K50H gave 8.1 µM (3 of 3 replicates). With D25W+K50G+G94A the result was 120 nM (3 of 3 replicates). For K50S+S93G, the assay gave 4.3 µM (3 of 3 replicates). Variant K50I+S93V+F98Q gave 5.8 µM (1 of 3 replicates). Variant G24D+K50T+G94Q showed 4.4 µM (2 of 3 replicates). Variant S26G+G49Q+K50A gave 7.6 µM (3 of 3 replicates). For D25G+Y30L+K50W, the assay gave 560 nM (3 of 3 replicates). For R28V+G49S+K50G, the assay gave 1.7 µM (3 of 3 replicates).

For K50H+S92H+F95L, the assay gave 4.5 µM (3 of 3 replicates). Variant K50D+P54D gave 96 nM (3 of 3 replicates). For G24R+K50N+G94T, the assay gave 310 nM (3 of 3 replicates). Variant G49H+K50Q showed 1.4 µM (2 of 3 replicates). Variant Y31V+K50M gave 800 nM (3 of 3 replicates). Variant R28L+K50H+G94L gave 310 nM (3 of 3 replicates). Variant G49V+K50T+N51L showed 27 µM (2 of 3 replicates).

The 4 strongest on average among those seen in every replicate, once more:

changes	Kd	replicates with signal
K50D+P54D	96 nM	3/3
D25W+K50G+G94A	120 nM	3/3
K50V+P54L+F98L	130 nM	3/3
E23D+K50D+G94Y	290 nM	3/3